Measured values taken from patent US20230097753A1, “ALPHA-HYDROXYLATED FATTY-ACID METABOLITES, MEDICAL USES AND USE AS BIOMARKERS” (UNIVERSITAT DE LES ILLES BALEARS, priority 2020, published 2023).

What was measured:
[1] = tested on: U-118 MG glioma cells; assay: Cell survival by trypan blue vital exclusion staining, 2OHOA and oxythiamine; type: cell-based, human
[2] = tested on: U-251 MG glioma cells; assay: Cell viability by violet crystal staining, 72 hours; type: cell-based, human; settings: for IC50: 72 hours
Method: (§1) FIG. 14. Effect of 2OHOA sodium salt, OA and C17:1n-9 sodium salt on cell viability and proliferation of glioma cells. […] Viability was determined by violet crystal staining.
(§2) In order to evaluate the antiproliferative effect of C17:1n-9, its IC50, which corresponds to the amount of a compound needed to reduce cell viability in vitro by 50%, as well as its effect on the regulation of proteins involved in the mechanism of action of 2OHOA, were determined. […] Upon completion of treatment, IC50 was determined by violet crystal staining technique. […] The IC50 of 2OHOA was 1000 μM for non-tumor cells, MRC-5 and astrocytes.

[3] = tested on: U-118 MG glioma cells; assay: as above; type: cell-based, human; settings: for IC50: 72 hours
Method: as §1, §2

[4] = tested on: U-118 MG glioma cells; settings: for Reduction in C17:1n-9 formed from 2OHOA / Increase in the amount of 2OHOA: U-118 MG, 400 μM 2OHOA 24 hours
[5] = tested on: SF-295 glioma cells; settings: human, 24 h, 400 μM
[6] = tested on: U-251 MG; assay: Cell survival by trypan blue vital exclusion staining, 2OHOA and oxythiamine; type: cell-based, human
Method: FIG. 18. Effect of metabolite C17:1n-9 on the action of 2OHOA. […] Cell viability was determined by vital exclusion staining with trypan blue.
To study whether the metabolite C17:1n-9 can participate in the action of 2OHOA, the effect of pre-incubation with oxythiamine on cell survival and 2OHOA-regulated proteins was studied. To do this, the cell survival of different glioma and non-tumor cell lines treated with 2OHOA (400 μM, 72 hours) and pre-incubated or not with 2 mM […] (90 minutes) was analyzed by counting the cells with the vital exclusion stain with trypan blue. In addition, Western-blot 2OHOA-modulated proteins were studied. In glioma cells, a significant decrease in cell survival was observed after incubation with 2 mM oxythiamine for 72 hours.

[7] = tested on: MRC-5 (human fibroblasts); assay: Fatty acid composition by gas chromatography after treatment with 2OHOA; settings: MRC-5, 2OHOA 400 μM for 24 hours
[8] = tested on: U118 cells; assay: Viability of U118 cells after DHA-H, DHA, HPA (150 μM, 48 h); type: cell-based, human; settings: U-118 MG, 1 mM oxythiamine alone
Method: (§3) FIG. 4. A. DHA-H is a prodrug that is metabolically transformed into HPA by α-oxidation in U118 cells. The intracellular levels of DHA (black bars), DHA-H (white bars) and HPA (striped bars) are represented on the ordinate axis (nmoles/mg of protein), with respect to the treatment conditions: Control (C) and sodium salt of DHA-H 150 μM (48 h), in the presence or absence of simultaneous treatment with oxythiamine 1 and 10 mM, in the abscissa axis. […] The bars represent the mean±standard error, and the statistical analysis was performed using one-way ANOVA and the Tukey multiple evaluation test: *p<0.05 when comparing only HPA levels. B. Metabolic conversion of DHA-H to HPA is necessary for an anti-tumor effect to exist. The cell viability (% of the control -C- without oxythiamine) is represented in the ordinate axis, with respect to the treatment conditions: Control (C- black bars) and the sodium salt of DHA-H 150 μM, 48 h (white bars) in the presence and absence of simultaneous treatment with 1 mM oxythiamine, in the abscissa axis. […] The bars represent the mean±standard error, and the statistical analysis was performed using one-way ANOVA and the Tukey multiple evaluation test: *p<0.05 when compared to control (C); #p<0.05 when comparing the effect of DHA-H in the presence and absence of oxythiamine.
(§4) FIG. 5. A. Viability of U118 cells in culture after treatment with DHA-H sodium salt, DHA sodium salt, and HPA. The cell viability (% of the control without treatment) is represented in the ordinate axis, versus the different treatment conditions in the abscissa axis: Control (black bar), DHA-H sodium salt (150 μM, 48 h—white bar), DHA (150 μM, 48 h—striped bar) and HPA (150 μM, 48 h—grid bar). Treatment with HPA under the same conditions induces a much more evident degree of mortality on the culture than that induced by DHA-H (prodrug) or DHA (natural analogue). This effect could be due to a mixture of anti-proliferative effect and toxic effects typical of HPA, which would not be attributable to DHA-H or DHA under the same experimental conditions. The bars represent the mean±standard error, and the statistical analysis was performed using one-way ANOVA and the Tukey multiple evaluation test: *p<0.05 when compared to control. B. Intracellular levels of HPA in U118 cells in culture, treated with the sodium salt of DHA-H and HPA. […]
(§5) Cell survival was analyzed in a Barker chamber using trypan blue vital exclusion staining (Scharlab) or by cell proliferation kit II (Roche). […] After different times, plaque viable cells were determined by the addition of XTT according to the manufacturers instructions.

[9] = tested on: U-118 MG cells; assay: Intracellular fatty acid levels in U-118 MG cells treated with DHA-H or HPA; type: in vitro ADME; settings: U-118 MG, simultaneous 1 or 10 mM oxythiamine
Method: as §3, §4, §5

CCCCCCCC/C=C\CCCCCCC(O)C(=O)O (centres unmarked) [2OHOA, 2-hydroxyoleic acid]
Cell death ([1]; 2OHOA sodium salt 400 μM, 72 hours): 24.71±1.88%
Cell death ([1]; 2OHOA sodium salt combined with 1 mM oxythiamine): 20.94±1.97%
Recovery in cell viability ([1]; 2OHOA sodium salt combined with 1 mM oxythiamine vs 2OHOA alone): 5%
Cell death ([1]; 2OHOA sodium salt combined with 2 mM oxythiamine): 11.71±1.14%
Recovery in cell viability ([1]; 2OHOA sodium salt combined with 2 mM oxythiamine vs 2OHOA alone): 17.26%
IC50 of 2OHOA relative to that of metabolite C17:1n-9 [2]: 1.95 times
IC50 of 2OHOA relative to that of non-hydroxy analogue OA [2]: 1.80 times
IC50 ([2]; Homo sapiens): 430 ± 9.67 µM
IC50 of 2OHOA relative to that of metabolite C17:1n-9 [3]: 1.90 times
IC50 of 2OHOA relative to that of non-hydroxy analogue OA [3]: 1.92 times
IC50 ([3]; Homo sapiens): 433 ± 10.8 µM
Amount of fatty acid in 2OHOA-treated cells ([4]; human, 24 h, 400 μM): 18.98±0.42 nmol/protein
Level of the fatty acid in cells after treatment with 2OHOA [5]: 9.31 ± 1.44 nmol/mg
Cell death ([6]; 2OHOA 400 μM, 72 hours): 23.22±1.32%
Cell death ([6]; 2OHOA combined with 2 mM oxythiamine): 14.07±1.62%
Recovery in cell viability ([6]; 2OHOA combined with 2 mM oxythiamine vs 2OHOA alone): 12%

CCCCCCCC/C=C\CCCCCCC(=O)O [C17:1n-9, 8Z-heptadecenoic acid]
IC50 [2]: 220 ± 7.93 µM
IC50 [3]: 222 ± 9.09 µM
Level of the fatty acid in cells after treatment with 2OHOA [7]: 14.00 ± 1.92 nmol/mg

Cc1ncc(C[n+]2csc(CCO)c2C)c(=O)[nH]1 [oxythiamine, reference compound]
Cell death ([1]; oxythiamine 1 mM alone): 12.16±0.5%
Cell death ([1]; oxythiamine 2 mM alone): 21.17±1.76%
Maximum cell survival inhibition ([1]; oxythiamine 10 mM alone): 27.13±0.41%
Effect on cell viability [8]: no effect on cell viability
Reduction in C17:1n-9 formed from 2OHOA ([4]; 1 mM oxythiamine pre-incubation): 51.35%
Increase in the amount of 2OHOA ([4]; 4mM oxythiamine): 12.33%
Increase in the amount of 2OHOA ([4]; 10 mM oxythiamine): 52.94%
Reduction in C17:1n-9 formed from 2OHOA ([4]; 10 mM oxythiamine): 58.45%
Effect on the DHA-H induced increase in HPA levels [9]: inhibited
Cell death ([6]; 2 mM oxythiamine, 72 hours): 18.51±0.58%

Where two headings read alike, the source gives them in different places.
